These results are taken from US20040127511A1 (Pharmacia Corporation, priority 2002, published 2004).

The chains behind the UniProt entries cited, without tags or fusion partners.
UniProt P49137, whole entry, species assumed: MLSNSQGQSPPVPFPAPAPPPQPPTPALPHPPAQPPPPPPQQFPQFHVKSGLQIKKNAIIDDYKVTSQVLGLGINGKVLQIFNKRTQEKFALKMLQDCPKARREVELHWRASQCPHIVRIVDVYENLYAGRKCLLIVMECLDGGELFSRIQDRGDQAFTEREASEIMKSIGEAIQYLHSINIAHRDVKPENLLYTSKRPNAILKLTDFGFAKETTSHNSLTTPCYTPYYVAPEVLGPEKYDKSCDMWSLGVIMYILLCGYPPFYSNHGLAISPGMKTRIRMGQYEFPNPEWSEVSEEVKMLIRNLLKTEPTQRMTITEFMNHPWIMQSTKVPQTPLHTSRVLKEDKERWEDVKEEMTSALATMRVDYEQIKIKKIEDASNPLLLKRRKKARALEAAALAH

Structures are written as SMILES.

The target in this assay is MAPKAPK2 (Homo sapiens, UniProt P49137). Nature of the assay: biochemical.

As for `COc1ccc2c(c1)Cc1c(nc(N)c(C#N)c1N)S2(=O)=O` [No. 94, 7,8-dimethoxy-2,4-bis[(2-methoxyethyl)amino]-5H-chromeno[2,3-b]pyridine-3-carbonitrile], the concentration for half-maximal inhibition (IC50) – broadly, the concentration that inhibits the measured activity by half – was ≥ 200 µM.
